The source of these data is patent publication US20260034119A1, “5-METHOXY-N,N-[…][…], THEIR […], AND METHODS FOR TREATMENT OF NEUROLOGICAL, […], AND SUBSTANCE USE DISORDERS” (priority 2023, published 2026).

Sequences of proteins named here, by UniProt entry; tags and fusion partners are left off.
UniProt P08908, whole entry N386V: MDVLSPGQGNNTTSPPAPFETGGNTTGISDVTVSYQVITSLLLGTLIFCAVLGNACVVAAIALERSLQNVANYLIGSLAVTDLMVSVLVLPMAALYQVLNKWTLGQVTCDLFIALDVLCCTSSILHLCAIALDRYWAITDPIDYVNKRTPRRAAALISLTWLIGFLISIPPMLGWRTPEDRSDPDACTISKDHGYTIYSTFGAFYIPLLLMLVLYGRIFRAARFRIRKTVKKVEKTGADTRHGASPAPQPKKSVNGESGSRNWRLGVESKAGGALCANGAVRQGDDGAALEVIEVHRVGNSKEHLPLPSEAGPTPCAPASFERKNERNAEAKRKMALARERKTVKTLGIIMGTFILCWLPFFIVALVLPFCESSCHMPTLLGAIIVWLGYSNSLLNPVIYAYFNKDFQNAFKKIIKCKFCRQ
UniProt P08908, whole entry: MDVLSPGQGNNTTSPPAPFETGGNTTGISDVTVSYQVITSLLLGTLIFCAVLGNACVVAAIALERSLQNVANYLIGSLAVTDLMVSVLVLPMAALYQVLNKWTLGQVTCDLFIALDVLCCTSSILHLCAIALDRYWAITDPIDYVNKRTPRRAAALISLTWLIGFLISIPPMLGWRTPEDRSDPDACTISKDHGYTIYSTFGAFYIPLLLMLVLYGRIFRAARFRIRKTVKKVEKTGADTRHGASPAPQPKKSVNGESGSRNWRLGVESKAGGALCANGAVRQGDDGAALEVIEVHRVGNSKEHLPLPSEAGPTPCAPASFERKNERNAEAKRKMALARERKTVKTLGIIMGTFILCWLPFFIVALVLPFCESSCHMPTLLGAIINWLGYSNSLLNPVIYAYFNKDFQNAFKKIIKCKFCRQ
UniProt P08908, whole entry A365N: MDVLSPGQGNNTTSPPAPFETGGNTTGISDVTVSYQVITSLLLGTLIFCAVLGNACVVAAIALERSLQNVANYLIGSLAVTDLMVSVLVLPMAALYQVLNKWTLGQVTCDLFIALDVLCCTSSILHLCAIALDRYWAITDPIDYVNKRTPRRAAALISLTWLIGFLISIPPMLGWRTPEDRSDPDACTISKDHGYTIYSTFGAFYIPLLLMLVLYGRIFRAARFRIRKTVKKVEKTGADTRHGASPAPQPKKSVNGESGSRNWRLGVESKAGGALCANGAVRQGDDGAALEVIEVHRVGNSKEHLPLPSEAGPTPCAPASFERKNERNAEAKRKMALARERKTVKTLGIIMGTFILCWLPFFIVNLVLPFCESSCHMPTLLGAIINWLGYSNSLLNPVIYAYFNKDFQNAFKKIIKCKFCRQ

One assay has as its target 5-HT1A N386V (Homo sapiens, UniProt P08908, N386V). The assay is described as follows: cell-based.
Assay [1] deals with T1, 5-HT1A (Homo sapiens, UniProt P08908). The assay is described as follows: BRET signaling assay: 5-HT1A-mediated activation of heterotrimeric Gi1 (TRUPATH, HEK293-T). As to conditions: 5-HT1A WT.
In the next assay the target is 5-HT1A A365N (Homo sapiens, UniProt P08908, A365N). The assay is described as follows: cell-based. As to conditions: EC50 (nM), Gi1 BRET, 5-HT1A A365N^6.55. (In general: BRET reads energy transfer from a luciferase to a nearby fluorophore.)
For assay [2], the target named is T1, 5-HT1A. The assay is described as follows: 5-HT1A-mediated cAMP reduction assay (GloSensor, HEK293-T). As to conditions: EC50 (nM), 5-HT1A WT.
The target of assay [3] is T1, 5-HT1A. The assay is described as follows: cell-based.

Regarding `COc1ccc2[nH]cc(CCN(C)C)c2c1` [Compound 5-MeO-DMT, 5-methoxy-N,N-dimethyltryptamine, reference compound], the EC50 (commonly the concentration at which the effect is half-maximal) at 5-HT1A N386V came to 0.0382 µM; at 5-HT1A [1] it was 0.0256 µM; on 5-HT1A A365N it was 197 nM; on 5-HT1A [2] it was 3.49 nM. The pEC50 entry on 5-HT1A [1] was “(7.59,”.

On to `COc1ccc2[nH]cc(CCN(C)C)c2c1` [Compound 8], for which the EC50 on 5-HT1A [3] was 0.00367 µM.
